Patent US10590130B2, “Chemical compounds” (AstraZeneca AB, priority 2016, dated 2020)

The chains behind the UniProt entries cited, without tags or fusion partners.
UniProt P03372, whole entry: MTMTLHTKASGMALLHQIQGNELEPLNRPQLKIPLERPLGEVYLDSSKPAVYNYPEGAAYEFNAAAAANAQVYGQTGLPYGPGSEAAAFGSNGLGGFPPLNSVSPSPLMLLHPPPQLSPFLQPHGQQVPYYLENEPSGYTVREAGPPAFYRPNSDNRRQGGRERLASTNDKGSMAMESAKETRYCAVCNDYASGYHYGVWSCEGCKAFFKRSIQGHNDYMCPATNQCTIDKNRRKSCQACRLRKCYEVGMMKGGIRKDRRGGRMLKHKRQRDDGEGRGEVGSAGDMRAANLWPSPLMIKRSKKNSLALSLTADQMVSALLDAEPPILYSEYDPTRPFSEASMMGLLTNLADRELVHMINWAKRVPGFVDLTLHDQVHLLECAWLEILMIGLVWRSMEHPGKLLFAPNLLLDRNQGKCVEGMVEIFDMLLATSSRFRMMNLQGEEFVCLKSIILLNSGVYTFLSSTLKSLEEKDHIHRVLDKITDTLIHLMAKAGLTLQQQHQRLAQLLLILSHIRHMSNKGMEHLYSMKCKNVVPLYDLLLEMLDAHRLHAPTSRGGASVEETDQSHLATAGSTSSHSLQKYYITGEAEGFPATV

Molecular target: ERα receptor in MCF-7 cells (Homo sapiens (Human), UniProt P03372)
Test: MCF-7 ER down-regulation assay (immuno-fluorescence)
Format: cell-based
Details: shown in parentheses where not >90%
Protocol: The Echo uses acoustic technology to perform direct microplate-to-microplate transfers of DMSO compound solutions to assay plates. The system can be programmed to transfer volumes as low as 2.5 nL in multiple increments between microplates and in so doing generates a serial dilution of compound in the assay plate which is then back-filled to normalise the DMSO concentration across the dilution range. […] Cells were fixed at room temperature for 20 mins before being washed two times with 250 μL PBS/Proclin (PBS with a Biocide preservative) using a BioTek platewasher, 40 μL of PBS/Proclin was then added to all wells and the plates stored at 4° C. […] The PBS/Proclin was aspirated from all wells and the cells permeabilised with 40 μL PBS containing 0.5% Tween™ 20 (v/v) for 1 hour at room temperature. The plates were washed three times in 250 μL of PBS/0.05% (v/v) Tween 20 with Proclin (PBST with a Biocide preservative) and then 20 μL of ERα (SP1) Rabbit monoclonal antibody (Thermofisher) 1:1000 in PBS/Tween™/3% (w/v) Bovine Serum Albumin was added. The plates were incubated overnight at 4° C. (Liconic carousel incubator) and then washed three times in 250 μL of PBS/0.05% (v/v) Tween™ 20 with Proclin (PBST). […] 20 μL of PBS was added to each well and the plates covered with a black plate seal and stored at 4° C. before being read. […]

Compound: COC[C@](C)(F)CN1[C@H](c2ccc(OC3CN(CCCF)C3)cc2OC)c2ccc3[nH]ncc3c2C[C@H]1C (single isomer, unassigned) [Example 12]
- % downregulation: 83%
